By UniProt entry, the sequences of proteins in these tests, tags left out.
UniProt P29371, whole entry, looked up: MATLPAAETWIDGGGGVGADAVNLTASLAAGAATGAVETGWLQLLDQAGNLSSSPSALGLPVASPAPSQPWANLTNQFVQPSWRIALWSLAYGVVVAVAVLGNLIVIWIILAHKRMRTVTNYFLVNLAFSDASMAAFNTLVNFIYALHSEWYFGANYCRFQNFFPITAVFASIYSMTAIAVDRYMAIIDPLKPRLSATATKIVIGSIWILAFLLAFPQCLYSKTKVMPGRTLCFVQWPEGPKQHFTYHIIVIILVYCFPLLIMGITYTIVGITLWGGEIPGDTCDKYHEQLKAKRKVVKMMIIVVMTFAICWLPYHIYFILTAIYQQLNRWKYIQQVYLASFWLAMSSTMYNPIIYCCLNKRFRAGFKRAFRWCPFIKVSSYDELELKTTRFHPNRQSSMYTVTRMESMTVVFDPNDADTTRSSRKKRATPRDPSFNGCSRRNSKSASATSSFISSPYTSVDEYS

According to US9226916B2, “Pyrrolidine derivatives” (HOFFMANN-LA ROCHE INC., priority 2009, dated 2016):

Molecular target: recombinant human NK3 receptor (Homo sapiens, UniProt P29371)
Assay: [3H]SR142801 competition binding assay
Conditions: read-out: Data Ki, hNK-3 receptor affinity, membranes from HEK293 cells transiently expressing recombinant human NK3 receptor, Cheng-Prussoff

Point of comparison: `CN(C(=O)Oc1ccc(Cl)nc1)[C@H]1CN(C(=O)C2CCN(C(=O)C3(C)CC3)CC2)C[C@@H]1c1ccc(Cl)c(Cl)c1` (racemic), Ki 3.4 nM. Against it:
- CN(C(=O)Oc1cccnc1Cl)[C@@H]1CN(C(=O)C2CCN(C(=O)C3(C)CC3)CC2)C[C@H]1c1ccc(Cl)c(Cl)c1 — 5.5-fold higher, 18.7 nM
- CN(C(=O)Oc1cccnc1F)[C@@H]1CN(C(=O)C2CCN(C(=O)C3(C)CC3)CC2)C[C@H]1c1ccc(Cl)c(Cl)c1 — 22-fold higher, 75.8 nM
- Cc1ccc(OC(=O)N(C)[C@@H]2CN(C(=O)C3CCN(C(=O)C4(C)CC4)CC3)C[C@H]2c2ccc(Cl)c(Cl)c2)c(C)n1 — 11-fold higher, 38 nM
- CN(C(=O)Oc1cncc(F)c1)[C@@H]1CN(C(=O)C2CCN(C(=O)C3(C)CC3)CC2)C[C@H]1c1ccc(Cl)c(Cl)c1 — 6.7-fold higher, 22.8 nM
- Cc1ccc(OC(=O)N(C)[C@@H]2CN(C(=O)C3CCN(C(=O)C4(C)CC4)CC3)C[C@H]2c2ccc(Cl)c(Cl)c2)cn1 — 2.5-fold higher, 8.4 nM
- CN(C(=O)Oc1ccc(C(F)(F)F)nc1)[C@@H]1CN(C(=O)C2CCN(C(=O)C3(C)CC3)CC2)C[C@H]1c1ccc(Cl)c(Cl)c1 — within 1.5-fold, 2.6 nM
- Cc1ccc(OC(=O)N(C)[C@@H]2CN(C(=O)C3CCN(C(=O)C4(C)CC4)CC3)C[C@H]2c2ccc(Cl)c(Cl)c2)c(F)n1 — 1.6-fold higher, 5.5 nM
- CN(C(=O)Oc1cc(F)cnc1Cl)[C@@H]1CN(C(=O)C2CCN(C(=O)C3(C)CC3)CC2)C[C@H]1c1ccc(Cl)c(Cl)c1 — 6.3-fold higher, 21.5 nM
- CN(C(=O)Oc1ccc(C(F)(F)F)nc1)[C@H]1CN(C(=O)C2CCN(C(=O)C3(C)CC3)CC2)C[C@@H]1c1ccc(Cl)c(Cl)c1 (racemic) — within 1.5-fold, 2.8 nM
- CN(C(=O)Oc1cccnc1)[C@@H]1CN(C(=O)C2CCN(C(=O)C3(C)CC3)CC2)C[C@H]1c1ccc(Cl)c(Cl)c1 — 13-fold higher, 44.9 nM
- CN(C(=O)Oc1ccc(Cl)nc1)[C@@H]1CN(C(=O)C2CCN(C(=O)C3(C)CC3)CC2)C[C@H]1c1ccc(Cl)c(Cl)c1 — 4.2-fold lower, 0.8 nM
- CN(C(=O)Oc1cccnc1C#N)[C@@H]1CN(C(=O)C2CCN(C(=O)C3(C)CC3)CC2)C[C@H]1c1ccc(Cl)c(Cl)c1 — 62-fold higher, 211 nM
